Results reported in PubChem BioAssay AID493098 (Sanford-Burnham Center for Chemical Genomics, 2011).
The list shows a part of the results, in another mix than the full data. The source made the active and inactive calls.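 How the source made its calls: active means compounds whose inhibition of the agonist-driven luminescence signal at 20 µM reaches about 50% (limit read from the data); inactive means the rest.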

The chains behind the UniProt entries cited, without tags or fusion partners.
UniProt P51684, whole entry: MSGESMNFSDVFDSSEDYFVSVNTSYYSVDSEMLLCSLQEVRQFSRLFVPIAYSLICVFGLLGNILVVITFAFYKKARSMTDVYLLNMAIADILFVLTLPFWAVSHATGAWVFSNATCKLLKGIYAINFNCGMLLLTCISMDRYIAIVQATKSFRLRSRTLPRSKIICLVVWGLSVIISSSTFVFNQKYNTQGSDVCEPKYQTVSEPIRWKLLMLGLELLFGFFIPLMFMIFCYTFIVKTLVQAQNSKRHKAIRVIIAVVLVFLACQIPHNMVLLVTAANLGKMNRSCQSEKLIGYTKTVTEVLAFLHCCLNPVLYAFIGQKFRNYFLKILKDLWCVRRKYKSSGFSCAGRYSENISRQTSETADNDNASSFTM

Target: C-C chemokine receptor type 6 (Homo sapiens) (UniProt P51684)
Experiment: blockers of CCL20-driven beta-arrestin recruitment to CCR6 – cell-based, CHO-K1, luminescence, uHTS, primary screen (AID 493098);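 further: cells stimulated with CCL20 at 14 nM final; plate controls were DMSO with CCL20 for no effect and DMSO without agonist for full effect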
Conditions: CHO-K1 CCR6 PathHunter beta-arrestin, CCL20-stimulated, at 20 µM, stronger effect = higher value

Compound	inhibition
N#Cc1ccc(C(=O)NCC2(N3CCCCC3)CCCCC2)cc1	inactive: 5.45%
CC(C)(C)OC(=O)N1CCC(N(C(=O)c2ccccc2)c2ccc(Cl)cc2)CC1	inactive: 3.18%
CN(C)C1(CNC(=O)c2cccc(C#N)c2)CCCCC1	inactive: -0.15%
c1ccc(CN2CCC(Nc3ccccc3)CC2)cc1	inactive: 16.1%
Cc1cc(N(CCCl)CCCl)ccc1C=O	inactive: 2.02%
CCCN1CCC(Nc2cc(OC)cc(OC)c2)CC1	inactive: -2.97%
COc1cc(C(=O)NCC2(N3CCOCC3)CCCCC2)cc(OC)c1C	inactive: 12.1%
O=C(NCC1(N2CCOCC2)CCCCC1)c1cc(Br)ccc1Cl	inactive: 14.1%
COc1ccc(C(=O)NCC2(N3CCOCC3)CCCCC2)cc1OC	inactive: 23.6%
CCOC(=O)N1CCC(Nc2ccc(C)cc2)CC1	inactive: 5.33%
N/C(=N\O)c1c(N)no[n+]1[O-]	inactive: 23%
CCc1cc(C(=O)NCC2(N3CCCCC3)CCCCC2)sc1C	inactive: 17.5%
O=C(OC1CN2CCC1CC2)C1c2ccccc2C=Cc2ccccc21 (stereo not given)	inactive: 2.32%
CCOc1ncccc1C(=O)NCC1(N2CCOCC2)CCCCC1	inactive: -7.69%
CN1CCC(Nc2ccc(F)c(Cl)c2)CC1	inactive: -3.18%
CC(C)(C)OC(=O)N1CCC(Nc2ccccc2)CC1	inactive: 4.94%
O=C(O)C1(Nc2ccccc2)CCN(Cc2ccccc2)CC1	inactive: 0.48%
CCCOc1ccc(C(=O)NCC2(N(C)C)CCCCC2)cc1	inactive: 12.5%
COc1cc(OC)cc(C(=O)NCC2(N3CCOCC3)CCCCC2)c1	inactive: -4.22%
COc1cccc(C(=O)N(c2cc(C)cc(C)c2)C2CCN(C(=O)OC(C)(C)C)CC2)c1	inactive: 10.9%
CCC(CO)(C(=O)OC1CN2CCC1CC2)c1ccccc1 (stereo not given)	inactive: 0.84%
CN1CCC(Nc2ccc(Cl)cc2)CC1	inactive: 8.91%
CC(=O)N(c1ccccc1)C1CCNCC1	inactive: 5.79%
COc1cc(OC)cc(C(=O)NCC2(N3CCCCC3)CCCCC2)c1	inactive: 7.6%
Cc1ccc(C(=O)NCC2(N3CCCCC3)CCCCC2)o1	inactive: 5.31%

Compound	inhibition
Fc1ccccc1NC1CCN(Cc2ccccc2)CC1	inactive: 12.6%
Cc1ccc(NC2(C#N)CCN(Cc3ccccc3)CC2)cc1	inactive: 13.3%
Cc1ccccc1NC1(C#N)CCN(Cc2ccccc2)CC1	inactive: 4.38%
CCN1CCC(Nc2cccc(F)c2)CC1	inactive: 14.9%
O=C(NCC1(N2CCCCC2)CCCCC1)c1ccco1	inactive: 3.87%
CN(C)c1ccc(C(=O)NCC2(N3CCCCC3)CCCCC2)cc1	inactive: 10.3%
Cn1c(=O)[nH]cc(N(CCCl)CCCl)c1=O	inactive: 7.5%
O=C1CCN(Cc2ccccc2)CC1	inactive: -10%
CCOc1ccc(C)cc1CN(CCCl)CCCl	inactive: 15.7%
O=P1(N(CCCl)CCCl)SCCCS1	inactive: 10.1%
CCCCOc1ccc(C(=O)NCC2(N3CCOCC3)CCCCC2)cc1	inactive: 7.26%
O=C(NCC1(N2CCCCC2)CCCCC1)c1ccc(F)cc1	inactive: 9.19%
COc1ccc(NC2CCN(CCc3ccccc3)CC2)c(OC)c1	inactive: 0.96%
CCOC(=O)N1CCC(Nc2ccc(F)cc2)CC1	inactive: 11.6%
CCOC(=O)N1CCC(Nc2cccc(C)c2)CC1	inactive: 15.3%
COc1cc(C(=O)NCC2(N(C)C)CCCCC2)ccc1OC(F)F	inactive: 0.93%
COc1ccc(C(=O)NCC2(N3CCCCC3)CCCCC2)cc1	inactive: -9.21%
CC(C)(C)OC(=O)N1CCC(N(C(=O)c2ccccc2)c2ccc(F)cc2)CC1	inactive: 8.35%
COc1ccc(C(=O)NCC2(N3CCCCC3)CCCCC2)c(OC)c1OC	inactive: 16.6%
O=C(NCC1(N2CCCCC2)CCCCC1)c1ccc(=O)[nH]c1	inactive: 0.47%
O=C(NCC1(N2CCCCC2)CCCCC1)c1cccs1	inactive: 10.3%
CSc1ccccc1C(=O)NCC1(N2CCCCC2)CCCCC1	inactive: 10.3%
Cc1cccc(NC2(C#N)CCN(Cc3ccccc3)CC2)c1	inactive: 11%
O=C(NCC1(N2CCCCC2)CCCCC1)c1ccc(Cl)nc1	inactive: 2.82%
Cc1cc(C)cc(N(C(=O)c2ccccc2)C2CCN(C(=O)OC(C)(C)C)CC2)c1	inactive: 16.6%

Compound	inhibition
O=C(NCC1(N2CCOCC2)CCCCC1)c1cc2ccccc2o1	inactive: 10%
O=C(NCC1(N2CCCCC2)CCCCC1)c1ccc(Cl)s1	inactive: 15.2%
N#CC1(Nc2ccccc2)CCN(Cc2ccccc2)CC1	inactive: -13%
O=C(OC1CN2CCC1CC2)C1c2ccccc2Oc2ccccc21 (stereo not given)	inactive: -3.53%
COc1ccc(Cl)cc1C(=O)NCC1(N2CCOCC2)CCCCC1	inactive: 11.8%
CCOC(=O)N1CCC(Nc2ccc(OC)cc2)CC1	inactive: 8.09%
CC(C)c1ccc(NC2CCN(C(=O)OC(C)(C)C)CC2)cc1	inactive: 11%
COc1ccc(CN(CCCl)CCCl)cc1Cl	inactive: -12.4%
CN(C)c1cccc(C(=O)NCC2(N3CCCCC3)CCCCC2)c1	inactive: 7.77%
COc1cc(OC)c(C(=O)NCC2(N(C)C)CCCCC2)cc1OC	inactive: 7.23%
O=C(NCC1(N2CCOCC2)CCCCC1)c1cc(F)c(F)cc1Cl	inactive: 5.25%
CN1CCC(Nc2cccc(F)c2)CC1	inactive: 3.91%
O=C(NCC1(N2CCCCC2)CCCCC1)c1cncc(Br)c1	inactive: 7.17%
CCCOc1ccc(C(=O)NCC2(N(C)C)CCCCC2)cc1OC	inactive: -0.15%
O=C(NCC1(N2CCCCC2)CCCCC1)c1ccc(OC(F)F)cc1	inactive: 14.7%
CCN1CCC(Nc2ccc(Cl)cc2)CC1	inactive: -0.78%
N#CC1(Nc2ccccc2)CCN(CCc2ccccc2)CC1	inactive: -4.94%
O=C(NCC1(N2CCCCC2)CCCCC1)c1cccc([N+](=O)[O-])c1	inactive: -1.28%
CSc1ccc(C(=O)NCC2(N3CCOCC3)CCCCC2)cc1	inactive: 5.84%
O=C(NCC1(N2CCCCC2)CCCCC1)c1cccc(C(F)(F)F)c1	inactive: 4.75%
COc1cc(C(=O)NCC2(N3CCCCC3)CCCCC2)ccc1OC(F)F	inactive: 2.08%
O=C(NCC1(N2CCOCC2)CCCCC1)c1cc(=O)[nH]c2ccccc12	inactive: 16.2%
CN1CCN(CCOC(=O)C(O)(c2ccccc2)c2ccccc2)CC1	inactive: 0.88%
CC(C)c1ccc(C(=O)NCC2(N3CCOCC3)CCCCC2)cc1	inactive: 4.37%
COc1ccc(NC2CCN(C(=O)OC(C)(C)C)CC2)cc1	inactive: 16.1%
